{"source": "patent US7429670B2", "about": "“Synthesis of derivatives of ginkgolide C” (The Trustees of Columbia University in the City of New York, priority 2003, dated 2008)", "molecular_target": "T1, human homomeric α1 GlyR (Homo sapiens, UniProt P23415)", "T1 construct": "expressed in transfected cells", "T1 sequence (P23415 29-457)": "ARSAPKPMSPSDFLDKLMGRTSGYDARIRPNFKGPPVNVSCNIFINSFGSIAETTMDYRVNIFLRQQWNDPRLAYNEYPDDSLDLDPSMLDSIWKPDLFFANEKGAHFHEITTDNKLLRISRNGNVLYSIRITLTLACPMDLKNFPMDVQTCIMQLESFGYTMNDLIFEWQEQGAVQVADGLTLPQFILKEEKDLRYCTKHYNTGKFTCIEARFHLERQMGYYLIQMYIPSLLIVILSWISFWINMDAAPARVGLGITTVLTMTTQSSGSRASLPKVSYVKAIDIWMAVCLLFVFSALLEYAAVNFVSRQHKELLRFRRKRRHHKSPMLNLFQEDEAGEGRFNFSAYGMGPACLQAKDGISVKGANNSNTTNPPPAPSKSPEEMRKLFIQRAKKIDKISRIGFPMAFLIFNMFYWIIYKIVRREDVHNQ", "test": "Functional glycine receptor assay (FLIPR Membrane Potential Assay)", "format": "cell-based", "conditions": "concentration of 10 mM GC (3); 100 mM glycine (so in the source)", "data": [{"substance": "Ginkgolide C [GC (3), reference compound]", "values": [{"measurement": "inhibition of the response induced by glycine", "result": 97, "unit": "%"}]}]}
